This note sets out measurements from PMC5515408, “Sequence-specific DNA binding by MYC/MAX to low-affinity non-E-box motifs” (PLoS ONE, 2017).

For the assay, the target named is T1, six histidine (6his)-tagged full-length human MYC (p64) (human, UniProt P01106-1).
T1 construct: MYC (p64), human, UniProtKB P01106-1, full length; also called 6his-MYC; source: E. coli RosettaBlue(DE3)pLacI, purified
The assay is described as follows: native gel or EMSA; purified recombinant proteins reconstituted into MYC:MAX or MAX:MAX complexes; the complexes were told apart by EMSA on labelled DNA probes (6% native polyacrylamide gel; 15 mM Tris-HCl pH 7.9, 100 mM KCl). The following applies: both partners purified.

B1: six histidine (6his)-tagged full-length human MAX (p21) (natural protein)
chain: not shown
notes: MAX (p21), human, […], full length; source: E. coli, purified
In the case of B1, the binding result is “binds”.
